Test results reported in patent US20150004134A1, “TREATMENT OF CANCER WITH HETEROCYCLIC INHIBITORS OF GLUTAMINASE” (Calithera Biosciences, Inc., priority 2012, published 2015).

System: P493-6 (myc "on") cells
Assay: Cell Proliferation Assay
Assay type: cell-based
Settings: P493-6, 72 h, read-out: Cell prolif P493 72 h IC50, P493 cells, 72 h
Experimental: P493-6 (myc “on”) cells were maintained in growth media (RPMI-1640, 10% FBS, 2 mM glutamine, 100 units/ml Penicillin and 100 μg/ml streptomycin) at 37° C. with 5% CO2. For compound assay, P493-6 cells were plated in 96-well V-bottom plates on the day of compound addition in 50 μl of growth media at a cell density of 200,000 cells/ml (10,000 cells/well). Compounds were serially diluted in 100% DMSO at 200-times the final concentration. Compounds were diluted 100-fold into growth media and then 50 μl of this mixture was added to cell plates making the final concentration of DMSO 0.5%. Cells were incubated with compound for 72 hrs at 37° C. with 5% CO2 and analyzed for antiproliferative effects either by Cell Titer Glo (Promega) or FACS analysis using the Viacount (Millipore) kit on the Guava instrument.

SMILES: O=C(Cc1ccccc1)Nc1ccc(CCCCc2nnc(NC(=O)[C@H](O)c3ccccc3)s2)nn1 [Compound 349]
- IC50: 120 nM
